Results reported in patent US7754220B2, “Methods of inhibiting secretion of follicle-stimulating hormone and testosterone” (Takeda Pharmaceutical Company Limited, priority 2003, dated 2010).

What was measured:
Format in all cases: in vivo, rat
[1] = test system: estradiol; assay: Level of estradiol in plasma by radioimmunoassay, ovulation induction study; conditions: Group A: hCG 20 IU/animal s.c., eCG-primed immature rats, 24-25 h after dosing; FIG. 1
Description: (§1) Equine chorionic gonadotropin (eCG, Serotropin, Dainippon Pharmaceutical Co., Ltd.) was dissolved in physiological saline (Otsuka Pharmaceutical Co., Ltd.) in 100 IU/mL. From 9:30 to 10:00 AM, female Wistar rats of 23 days old after birth (Nippon Charles River) received 10 IU of eCG per animal subcutaneously in the back through a 1 mL tuberculin syringe with a 26 gauge needle (both by Terumo). The rats were assigned to the following groups 47 to 48 hours after the administration of eCG, to each of which groups a drug was given.
(§2) After administration of the drug described above, the animals were sacrificed after additional 24 to 25 hours by decapitation to collect blood, bilateral uterine tubes and uterus. Before blood collection, 90 μL of 10 KIU/mL aprotinin solution (Trasylol, Bayer) supplemented with 3 mg /mL EDTA was previously filled in a centrifuging tube for collection to prevent blood clotting. After the blood collection, the blood was thoroughly stirred and centrifuged at 2,000 G for 25 minutes. The supernatant was recovered and used as a plasma sample.
The level of estradiol contained in plasma collected from the rats shown in Table 1 was determined by radioimmunoassay (DPC-Estradiol Kit; Diagnostic Products Corporation).

[2] = test system: immature rats; assay: Induction of ovulation in immature rats (number of ova); conditions: Group A: hCG 20 IU/animal s.c.
Description: as §1
Group A (five rats): Human chorionic gonadotropin (hCG, Gonadotropin, Dainippon Pharmaceutical Co., Ltd.) was dissolved in physiological saline in 100 IU/mL and 20 IU/animal was subcutaneously administered in the back.
Group B (five rats): Human metastin was dissolved in physiological saline in 100 nmol/mL and 20 nmol/animal was subcutaneously administered in the back. […]
The number of ova was counted as follows.
Where retained ova in the ampulla of uterine tube were confirmed by stereomicroscopic observation of the uterine tube, the ampulla was punctured with a 27-gauge syringe needle (Terumo) to retrieve the ova. After granulosa cells surrounding the ova were removed by trypsin treatment, the number of ova was counted. […]

[3] = test system: progesterone; assay: Level of progesterone in plasma by radioimmunoassay, ovulation induction study; conditions: Group A: hCG 20 IU/animal s.c., eCG-primed immature rats, 24-25 h after dosing; FIG. 2
Description: as §1, §2
The level of progesterone contained in plasma was determined by radioimmunoassay (DPC.Progesterone; Diagnostic Products Corporation).

“hCG: Human chorionic gonadotropin (hCG, Gonadotropin, Dainippon Pharmaceutical Co., Ltd.), conventional ovulation inducer used as comparator” was tested, and the “level of estradiol contained in plasma” value [1] was “no difference; also recorded: decreased”, the number of ova ([2]; 47-48 h after eCG 10 IU, ova counted 24-25 h later, individual rats 1-5) was 36 and 35 (2×) and 40 and 42 and the “Average number of ova” value ([2]; eCG-primed immature female Wistar rats, five rats) was 37.6. The “level of progesterone contained in plasma” value [3] was “the highest; also recorded: increased”.

Values joined by “and” are separate entries in the source; they are usually repeats but may differ in a detail not shown here. Equal values may be shown once. “Also recorded” adds a separate entry of the source.
